Source: US20240016766A1, “PHARMACEUTICAL COMPOSITION FOR TREATMENT OF INNER EAR DISORDERS THROUGH LOCAL ADMINISTRATION IN THE TYMPANIC AREA” (priority 2020, published 2024)

Details: rat, in vivo
Description: Pharmacokinetics study of different active agents has been conducted with ready-to-use formulations. The pharmacokinetic study consists of a single administration up to the eardrum on male Long Evans rats and assessment of the level of the active agent in middle ear area (tympanic bulla) and in the inner ear area (perilymph).
2. Route of administration: 20 μl of each formulation are delivered in the ear canal of one animal in one administration.
3. Animals: 6 male rats Long Evans, were obtained from Janvier Labs, Le Genest St Isle, 53941 St Berthevin, France. Acclimation Animals arrived on site at least 5 days before the experiment to allow optimal acclimation. Selection Animal health was examined on the day before starting the study, to ensure that only animals in good health were selected to enter the testing procedures. […]
4. […] The exact volume of administration was determined during this first test and delivered (volume of 20 μL). […] The diffusion trough the tympanic membrane and into the inner ear and was assessed with the dosage of the perilymph sampling. […]
5. Bioanalysis: The concentration of each compound in the perilymph and in the tympanic bulla was quantified using an exploratory LC/MS-MS assay method in outsourcing laboratory (Eurofins Vergeze, France). The concentration of amitriptyline in plasma was assessed. […]

- Presence within the inner ear (perilymph): present
Structure (SMILES): CCN(CC)CC(=O)Nc1c(C)cccc1C [lidocaine]
